# Antibody variant affinities, Ab-14 light chain, assay B

Data: MIT Lincoln Laboratory AlphaSeq set, Li et al. 2023, doi:10.1038/s41467-023-39022-2, as distributed in FLAb.

The target is the same throughout: PDVDLGDISGINAS, from the HR2 region of SARS-CoV-2 spike.

The variants keep the heavy chain, the linker and the frameworks of Ab-14 (scFv order VH, a 15-residue (Gly4Ser)3 linker, VL).
VH: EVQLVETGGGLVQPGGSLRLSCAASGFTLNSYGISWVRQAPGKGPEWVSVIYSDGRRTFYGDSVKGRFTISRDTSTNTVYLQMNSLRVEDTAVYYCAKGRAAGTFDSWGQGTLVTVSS
VL: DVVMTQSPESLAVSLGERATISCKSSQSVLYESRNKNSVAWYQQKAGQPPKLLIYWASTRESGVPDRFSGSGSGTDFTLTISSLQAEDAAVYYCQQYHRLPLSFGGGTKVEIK

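The variants were designed computationally from a first round of random CDR variants and then made and measured. Several design methods are mixed in this list. Affinity was read by AlphaSeq, a pooled yeast mating assay with surface-displayed partners. Mating (16 h, 30 °C) was followed by selection of diploids and sequencing of their barcodes. Each replicate has its own calibration line, from reference interactions of the BCL2 family. The assay was run in six technical replicates.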

The parent's light chain CDRs are KSSQSVLYESRNKNSVA, WASTRES, QQYHRLPLS; each variant's own CDRs replace them letter for letter.
Variants here have more than six changes.
Kd is apparent (estimated from mating counts) and averaged on the log scale over replicates with a signal. Smaller is tighter.
"nd" marks a missing value. The strain was present, yet no cells mated with the target were sequenced in any replicate, which points to weak or no binding.
Empty control strains, which show no peptide, gave a signal in 4% of pairings with all light chain designs; the median was 430 nM and 95% of these signals were weaker than 38 nM. No background was subtracted. Also given: how often the same scFv was detected with the empty control strains.

* MFSQMTGLGMKASNSVA | QASMRFN | QQYHRLPLI: 8.4 nM (6 of 6 replicates; controls 0 of 18)
* SLAEAVHMESRNKNSVA | DNSTRES | QHYHRLPLS: 230 nM (5 of 6 replicates; controls 2 of 18)
* NFSQMVLTGSTLRNSVA | HASTRFD | QQYHRLPLI: 27 nM (5 of 6 replicates; controls 0 of 18)
* KLTEQLYNGERRPSSIA | AGVIGSD | QQYHQLPLV: 3.6 nM (6 of 6 replicates; controls 0 of 18)
* KLQWYPLGIRDTGSNVA | EAATKYN | QQYMRLPLM: 18 nM (2 of 6 replicates; controls 0 of 18)
* SLSPFMDTDANKYDSVA | NTANIDI | QQYDRLPLS: 110 nM (5 of 6 replicates; controls 1 of 18)
* TLSDLMYMESRNMNSVA | DLVKRES | QQYHRLPLS: 4.1 nM (6 of 6 replicates; controls 0 of 18)
* KLGDMVHTLSRNNNSIA | DMRTRES | QQYYRLPLS: 15 nM (6 of 6 replicates; controls 1 of 18)
* KISQMYRYEQQNSSSIA | EVSTRLN | QSYHRLPLS: 820 nM (3 of 6 replicates; controls 3 of 18)
* MISGVLHMLGAKKNSIA | DLVMRAN | QQYHRLPLF: 77 nM (6 of 6 replicates; controls 0 of 18)
* SISGFMKSLSAHMNSVA | DMTNRED | QQYDRLPLS: 22 nM (6 of 6 replicates; controls 1 of 18)
* LLQGSEQYESRNKNSVA | DASTRES | QAYHRLPLS: 4.7 nM (6 of 6 replicates; controls 1 of 18)
* KIGATLDTLYEKKNNVA | DLVVREN | QQYHRLPLS: 1.6 nM (6 of 6 replicates; controls 0 of 18)
* KLTSVTGTEKVHGNNVA | EMETREK | QQYNRLPLS: 5.0 nM (6 of 6 replicates; controls 1 of 18)
* KLMWSVEYESRNQNSVA | SASYRED | QQYHRLPLS: 6.4 nM (6 of 6 replicates; controls 1 of 18)
* MIGQMLGVQSNKIHSVA | QANLRED | QQYDRLPLE: 8.4 nM (6 of 6 replicates; controls 0 of 18)
* MLSDLVKMGSRNSNSVA | DNSTRGS | QQYDRLPLS: 34 nM (5 of 6 replicates; controls 0 of 18)
* HLYQSQLYESRWKNSVA | NASTRLH | QQYHRLPLS: 6.7 nM (6 of 6 replicates; controls 0 of 18)
* NISGFMKTLSAHINNVA | DMTNRED | QQYDRLPLS: 2.6 nM (6 of 6 replicates; controls 2 of 18)
* KLLQSVNYGSRALNSVA | QMETRED | QQYDRLPLS: 3.7 nM (6 of 6 replicates; controls 1 of 18)
* KLWMSPFEGQSELQAVA | QAEVLRQ | QQYNMLPLS: 79 nM (4 of 6 replicates; controls 0 of 18)
* TLMHHQDYQDEWKKSIA | NAIIRER | QQYSRLPLA: 22 nM (6 of 6 replicates; controls 1 of 18)
* NLTTGYEQGALNTDNVA | HGNMTEA | QQYYRLPLS: 2.8 nM (6 of 6 replicates; controls 1 of 18)
* SLMQVGGYESNDKNSIA | DLRTRES | QQYHRLPLS: 9.0 nM (6 of 6 replicates; controls 1 of 18)
* KFSESVLYESRTINSVL | NASTREV | QQYHRLPLS: nd (0 of 6 replicates; controls 0 of 18)
* IVSQLMIWGMHLKNSIA | EAQTRLN | QQYERLPLF: 4.6 nM (6 of 6 replicates; controls 0 of 18)
* HVSESVLSQSKMKNSVA | ENSTRES | QQYDRLPLS: 23 nM (6 of 6 replicates; controls 0 of 18)
* MMSQVTALGQRHRNNVA | QTSTREE | QQYDRLPLI: 11 nM (6 of 6 replicates; controls 2 of 18)
* KLSQEYCYGDRNKNSVA | QASTREQ | QQYHRLPLS: 1.8 nM (6 of 6 replicates; controls 0 of 18)
* KVQPSGGMLSRNKNSVA | DASTRES | QQYHRLPLS: 390 pM (6 of 6 replicates; controls 1 of 18)
* HVSQNLTDEMYREYNVA | ETNHVEE | QDYFHLPLI: nd (0 of 6 replicates; controls 0 of 18)
* KLQQSWEYESRNKNSVA | NASQRLS | QQYHRLPLS: 1.0 nM (6 of 6 replicates; controls 1 of 18)
* AMSEHAFYGQRDENAIA | GADVRAK | QQYWRLPLT: 2.2 nM (6 of 6 replicates; controls 1 of 18)
* KIDQSVEYESRDKNSVA | NASTRCQ | QQYHRLPLS: 4.5 nM (6 of 6 replicates; controls 3 of 18)
* MMSQVTGLGQRQRNNVA | QTSTREE | QQYDRLPLI: 2.7 nM (6 of 6 replicates; controls 3 of 18)
* KLQQSWLYLSRNHNAVA | QASQRCS | QDYHRLPLS: 4.0 nM (6 of 6 replicates; controls 0 of 18)
* KLSMSVMMESRNKNSVA | SANTRCE | QQYHRLPLS: 1.0 nM (6 of 6 replicates; controls 0 of 18)
* KFEGSWGMESRNKNSVA | NASHRMS | QQYHRLPLS: 2.2 nM (6 of 6 replicates; controls 3 of 18)
* TLYGLTNSMSKNKDNVA | EMSTREL | QQYDRLPLA: 22 nM (6 of 6 replicates; controls 0 of 18)
* KVSEFMRGLMQRQDSIA | DNVTRNS | QQYDRLPLS: 230 nM (5 of 6 replicates; controls 4 of 18)
* SLRAMILDWDSKRQNIA | DVHMREQ | QQYNRLPIV: 1.9 nM (6 of 6 replicates; controls 1 of 18)
* MLTWDDDHETGRQNSIA | HAHERNT | QQYHQLPLI: 2.9 nM (6 of 6 replicates; controls 1 of 18)
* HLGDTVMQGSYYRNSVA | QESTRAD | QQYHRLPLS: 1.7 nM (6 of 6 replicates; controls 1 of 18)
* KLSMAYRYESENKNSIA | ELVTRMS | QQYHRLPLS: 11 nM (6 of 6 replicates; controls 1 of 18)
* KLEMSVQMESRNKNSVA | NASTRER | QQYHRLPLS: 770 pM (6 of 6 replicates; controls 0 of 18)
* ALTNEPESVDHHLNNVA | STSKRCM | QQYARLPLS: 1.4 nM (6 of 6 replicates; controls 1 of 18)
* KLSQADWYESRNCNSVA | QASTREQ | QQYHRLPLS: 35 nM (6 of 6 replicates; controls 1 of 18)
* KIGYGLTTESRNKNSVA | QTETRES | QHYHRLPLS: 5.6 nM (6 of 6 replicates; controls 2 of 18)
* HFSQVTMYGSWNRNSVA | QTSTREE | QQYDRLPLS: 370 nM (1 of 6 replicates; controls 1 of 18)

The opening 7 entries, copied out:

CDR-L1	CDR-L2	CDR-L3	Kd (apparent)	seen in	signal with controls
MFSQMTGLGMKASNSVA	QASMRFN	QQYHRLPLI	8.4 nM	6/6	0/18
SLAEAVHMESRNKNSVA	DNSTRES	QHYHRLPLS	230 nM	5/6	2/18
NFSQMVLTGSTLRNSVA	HASTRFD	QQYHRLPLI	27 nM	5/6	0/18
KLTEQLYNGERRPSSIA	AGVIGSD	QQYHQLPLV	3.6 nM	6/6	0/18
KLQWYPLGIRDTGSNVA	EAATKYN	QQYMRLPLM	18 nM	2/6	0/18
SLSPFMDTDANKYDSVA	NTANIDI	QQYDRLPLS	110 nM	5/6	1/18
TLSDLMYMESRNMNSVA	DLVKRES	QQYHRLPLS	4.1 nM	6/6	0/18

The authors averaged sequences with at least three values out of six and counted those with two or fewer as poor binders.
Of ten entries with the parent sequence, four were seen in most replicates (averages 2.2 nM to 240 nM), three in one and three in none, so single entries are noisy.
A sequence measured in both rounds can read differently, since the two assays cover different ranges.